Reference: patent publication US8580321B2, “Method for reducing the effects of chemotherapy using flagellin related polypeptides” (priority 2003, dated 2013)

Test system: NIH Swiss mice treated with cisplatinum

With `N.N.[Cl][Pt][Cl]` [cisplatinum, reference compound] the “mice surviving past Day 13, cisplatinum alone” value (10 mg/kg i.p.) was “no mice out of 11” and the “behavioral changes, cisplatinum with PBS” value (FIG. 39D) was “limited mobility”.
